ChEMBL document CHEMBL1140903, “Reactions of functionalized sulfonamides: application to lowering the lipophilicity of cytosolic phospholipase A2alpha inhibitors” (J Med Chem, 2009)

Biological target: T1, Cytosolic phospholipase A2 (Homo sapiens, UniProt P47712)
T1 sequence (P47712 whole entry): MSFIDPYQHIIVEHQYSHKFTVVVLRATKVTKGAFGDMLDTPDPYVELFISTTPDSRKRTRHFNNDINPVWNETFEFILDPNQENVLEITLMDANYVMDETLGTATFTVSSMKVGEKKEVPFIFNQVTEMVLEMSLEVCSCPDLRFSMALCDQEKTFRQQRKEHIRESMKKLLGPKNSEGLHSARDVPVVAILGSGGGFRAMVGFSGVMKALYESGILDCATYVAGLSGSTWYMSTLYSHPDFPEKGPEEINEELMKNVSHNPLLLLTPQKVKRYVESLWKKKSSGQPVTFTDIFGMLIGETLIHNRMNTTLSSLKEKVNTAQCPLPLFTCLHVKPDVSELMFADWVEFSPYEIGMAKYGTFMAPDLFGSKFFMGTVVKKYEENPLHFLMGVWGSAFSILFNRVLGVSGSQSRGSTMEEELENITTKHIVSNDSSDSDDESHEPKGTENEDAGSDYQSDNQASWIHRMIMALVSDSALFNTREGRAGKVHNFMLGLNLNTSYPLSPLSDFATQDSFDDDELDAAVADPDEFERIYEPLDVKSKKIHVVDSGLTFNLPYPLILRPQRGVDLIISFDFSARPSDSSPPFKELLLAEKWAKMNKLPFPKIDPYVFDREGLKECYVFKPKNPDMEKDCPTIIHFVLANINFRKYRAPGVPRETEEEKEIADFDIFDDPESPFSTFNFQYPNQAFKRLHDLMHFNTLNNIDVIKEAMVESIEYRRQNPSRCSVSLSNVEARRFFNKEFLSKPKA
Assay: Inhibition of human cytosolic PLA2alpha by GLU micelle assay
Method in brief: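 Purified human cPLA2α with the substrate 7-hydroxycoumarinyl-γ-linolenate (GLU), presented in micelles containing a high concentration of detergent and lipid. IC50 is taken from at least two runs, each run the mean of duplicate assays.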

Row | SMILES | IC50
1 | CC1CN(CCS(=O)(=O)NCCc2c(CCOc3ccc(C(=O)O)cc3)c3cc(Cl)ccc3n2C(c2ccccc2)c2ccccc2)CC(C)N1 (configuration not stated) | 600 nM
2 | O=C(O)c1ccc(OCCc2c(CCNS(=O)(=O)CCn3ccnc3)n(C(c3ccccc3)c3ccccc3)c3ccc(Cl)cc23)cc1 | 550 nM
3 | CC1C(=O)NCCN1CCS(=O)(=O)NCCc1c(CCOc2ccc(C(=O)O)cc2)c2cc(Cl)ccc2n1C(c1ccccc1)c1ccccc1 (configuration not stated) | 200 nM
4 | O=C(O)c1ccc(OCCc2c(CCNS(=O)(=O)CCN3CCSCC3)n(C(c3ccccc3)c3ccccc3)c3ccc(Cl)cc23)cc1 | 170 nM
5 | O=C(O)c1ccc(OCCc2c(CCNS(=O)(=O)CCN3CCSC3)n(C(c3ccccc3)c3ccccc3)c3ccc(Cl)cc23)cc1 | 330 nM
6 | CC(=O)N1CCN(CCS(=O)(=O)NCCc2c(CCOc3ccc(C(=O)O)cc3)c3cc(Cl)ccc3n2C(c2ccccc2)c2ccccc2)CC1 | 490 nM
7 | O=C(O)c1ccc(OCCc2c(CCNS(=O)(=O)CCn3cccn3)n(C(c3ccccc3)c3ccccc3)c3ccc(Cl)cc23)cc1 | 320 nM
